# Measured values as given in paper PMC8343220, “The selectivity of α‐adrenoceptor agonists for the human α1A, α1B, and α1D‐adrenoceptors” (Pharmacology Research & Perspectives, 2021).
# Sequences of proteins named here, by UniProt entry; tags and fusion partners are left off. A change or cut given only in a name is not applied to a line headed by its entry.
# UniProt P25100, whole entry, looked up: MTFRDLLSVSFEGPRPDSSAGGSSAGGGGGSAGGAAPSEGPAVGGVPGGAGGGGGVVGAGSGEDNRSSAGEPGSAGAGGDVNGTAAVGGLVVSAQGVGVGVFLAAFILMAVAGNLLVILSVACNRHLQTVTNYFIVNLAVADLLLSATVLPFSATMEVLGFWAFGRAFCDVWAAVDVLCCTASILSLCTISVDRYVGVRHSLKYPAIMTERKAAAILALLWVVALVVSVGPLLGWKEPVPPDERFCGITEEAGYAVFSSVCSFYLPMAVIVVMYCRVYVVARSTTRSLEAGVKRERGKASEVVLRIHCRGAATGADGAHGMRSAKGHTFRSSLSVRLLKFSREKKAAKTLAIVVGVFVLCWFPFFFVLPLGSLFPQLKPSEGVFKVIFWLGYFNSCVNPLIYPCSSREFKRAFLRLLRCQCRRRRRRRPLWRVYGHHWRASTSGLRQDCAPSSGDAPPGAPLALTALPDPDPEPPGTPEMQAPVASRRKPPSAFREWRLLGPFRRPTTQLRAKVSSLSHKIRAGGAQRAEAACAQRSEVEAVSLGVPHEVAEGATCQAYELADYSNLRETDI
# UniProt P35348: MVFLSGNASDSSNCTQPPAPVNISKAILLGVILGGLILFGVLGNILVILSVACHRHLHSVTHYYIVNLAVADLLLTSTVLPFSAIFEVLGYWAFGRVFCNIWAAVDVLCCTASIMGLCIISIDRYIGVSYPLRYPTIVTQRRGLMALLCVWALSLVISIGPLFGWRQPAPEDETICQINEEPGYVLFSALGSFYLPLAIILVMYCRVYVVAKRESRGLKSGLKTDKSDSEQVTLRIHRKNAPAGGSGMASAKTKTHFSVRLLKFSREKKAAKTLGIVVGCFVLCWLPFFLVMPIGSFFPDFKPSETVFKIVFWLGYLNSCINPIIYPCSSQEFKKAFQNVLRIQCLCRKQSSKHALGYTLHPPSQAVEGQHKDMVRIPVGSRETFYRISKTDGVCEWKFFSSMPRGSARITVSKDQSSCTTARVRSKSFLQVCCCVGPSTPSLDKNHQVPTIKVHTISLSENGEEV
# UniProt P35368, whole entry, looked up: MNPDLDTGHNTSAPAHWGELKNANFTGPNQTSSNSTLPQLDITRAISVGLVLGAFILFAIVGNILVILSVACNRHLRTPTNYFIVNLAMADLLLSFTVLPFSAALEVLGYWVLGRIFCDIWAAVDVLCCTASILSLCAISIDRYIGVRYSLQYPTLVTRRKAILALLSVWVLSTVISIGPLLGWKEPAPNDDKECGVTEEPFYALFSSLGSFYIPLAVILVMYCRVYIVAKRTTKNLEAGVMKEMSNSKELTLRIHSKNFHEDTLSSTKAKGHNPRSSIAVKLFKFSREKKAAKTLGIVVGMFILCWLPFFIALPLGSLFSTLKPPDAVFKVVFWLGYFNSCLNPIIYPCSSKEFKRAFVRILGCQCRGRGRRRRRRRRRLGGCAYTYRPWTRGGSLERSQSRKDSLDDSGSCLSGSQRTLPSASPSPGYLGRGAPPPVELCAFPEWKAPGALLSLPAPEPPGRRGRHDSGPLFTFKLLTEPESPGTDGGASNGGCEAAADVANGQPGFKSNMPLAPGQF
# Key:
# [1] = target: T1, human α1D‐adrenoceptor (full length) (Homo sapiens, UniProt P25100); assay: Intracellular free calcium mobilization, CHO‐α1D cells; assay type: cell-based
# [2] = target: T2, human α1A‐adrenoceptor (Homo sapiens, UniProt P35348); assay: Intracellular free calcium mobilization, CHO‐α1A cells; assay type: cell-based
# [3] = target: T1, human α1D‐adrenoceptor (full length); assay: ERK1/2‐phosphorylation (Surefire Alphascreen), CHO‐α1D cells; assay type: cell-based
# [4] = target: T3, human α1B‐adrenoceptor (Homo sapiens, UniProt P35368); assay: ERK1/2‐phosphorylation (Surefire Alphascreen), CHO‐α1B cells; assay type: cell-based; details: for bi‐phasic responses the initial stimulatory part
# [5] = target: T2, human α1A‐adrenoceptor; assay: ^3H‐prazosin whole‐cell radioligand binding, CHO‐α1A cells
# [6] = target: T2, human α1A‐adrenoceptor; assay: ERK1/2‐phosphorylation (Surefire Alphascreen), CHO‐α1A cells; assay type: cell-based; details: % of 10 µM PDBu, ^a bi‐phasic: initial stimulatory part
# [7] = target: T3, human α1B‐adrenoceptor; assay: ^3H‐prazosin whole‐cell radioligand binding, CHO‐α1B cells
# [8] = target: T1, human α1D‐adrenoceptor (full length); assay: ^3H‐prazosin whole‐cell radioligand binding, CHO‐α1D cells
# [9] = maximal response as % of 10 µM ionomycin
structure (smiles),measurement,setting,value
CN(CCCl)Cc1cc(Cl)c(NC2=NCCN2)c(Cl)c1,Intracellular calcium release Log EC50,[1]; log values given negative,No response
same,Intracellular calcium release % ionomycin,[1]; [9],No response
same,Log efficacy ratio KD /EC50,[2]; binding KD and calcium EC50,0.14
same,Intracellular calcium release Log EC50,[2]; given as log EC50 (negative),−5.57 ± 0.09
same,Intracellular calcium release % ionomycin,[2]; [9],38.4 ± 2.8%
same,ERK1/2‐phosphorylation Log EC50,[3]; log values given negative,No response
same,ERK1/2‐phosphorylation % PDBu,[3]; maximal response as % of PDBu,No response
same,ERK1/2‐phosphorylation Log EC50,[4],No response
same,ERK1/2‐phosphorylation % PDBu,[4]; maximal response as % PDBu response,No response
same,"Log KD α1A, ^3H‐prazosin whole cell binding","[5]; CHO‐α1A cells, given as log KD (negative), mean ± SEM",−5.43 ± 0.05
same,Affinity selectivity ratio α1A vs α1B,[5]; higher affinity for α1A than α1B,1.2 fold
same,ERK1/2‐phosphorylation % PDBu,[6],66.5 ± 6.4%
same,"Log KD α1B, ^3H‐prazosin whole cell binding","[7]; given as log KD (negative), mean ± SEM",−5.35 ± 0.07
same,"Log KD, ^3H‐prazosin binding","[7]; whole‐cell binding (from Table 1), given as log KD (negative numbers)",−5.35
same,3H‐prazosin binding Log KD,"[8]; CHO‐α1D cells, whole‐cell binding (from Table 1), log values given negative",−5.50
same,"Log KD α1D, ^3H‐prazosin whole cell binding","[8]; CHO‐α1D cells, given as log KD (negative), mean ± SEM, 'early plateau' = specific binding not fully inhibited",−5.50 ± 0.06
same,Affinity selectivity ratio α1A vs α1D,[8]; higher affinity for α1D than α1A,1.2 fold
same,Affinity selectivity ratio α1B vs α1D,[8]; higher affinity for α1D than α1B,1.4 fold
